This is an account of results in patent publication US20230089899A1, “METHOD FOR NON-TARGETED CHARACTERISATION OF A SOLUTION COMPRISING A PLURALITY OF SOLUTES” (COMMISSARIAT A L'ENERGIE ATOMIQUE ET AUX ENERGIES …, priority 2021, published 2023).

The conditions of the data set: from the second row of partitions (N=2), mathematical processing for two species, 14C activity.

Take “bisphenol A (BPA) marked with ^14C [^14C-BPA]”: the “log D^EXP” value is on record as “approximately 3”.
